Results reported in patent publication US9730940B2, “Purine inhibitors of human phosphatidylinositol 3-kinase delta” (priority 2012, dated 2017).

Sequences of proteins named here, by UniProt entry; tags and fusion partners are left off.
UniProt P42336, whole entry, looked up: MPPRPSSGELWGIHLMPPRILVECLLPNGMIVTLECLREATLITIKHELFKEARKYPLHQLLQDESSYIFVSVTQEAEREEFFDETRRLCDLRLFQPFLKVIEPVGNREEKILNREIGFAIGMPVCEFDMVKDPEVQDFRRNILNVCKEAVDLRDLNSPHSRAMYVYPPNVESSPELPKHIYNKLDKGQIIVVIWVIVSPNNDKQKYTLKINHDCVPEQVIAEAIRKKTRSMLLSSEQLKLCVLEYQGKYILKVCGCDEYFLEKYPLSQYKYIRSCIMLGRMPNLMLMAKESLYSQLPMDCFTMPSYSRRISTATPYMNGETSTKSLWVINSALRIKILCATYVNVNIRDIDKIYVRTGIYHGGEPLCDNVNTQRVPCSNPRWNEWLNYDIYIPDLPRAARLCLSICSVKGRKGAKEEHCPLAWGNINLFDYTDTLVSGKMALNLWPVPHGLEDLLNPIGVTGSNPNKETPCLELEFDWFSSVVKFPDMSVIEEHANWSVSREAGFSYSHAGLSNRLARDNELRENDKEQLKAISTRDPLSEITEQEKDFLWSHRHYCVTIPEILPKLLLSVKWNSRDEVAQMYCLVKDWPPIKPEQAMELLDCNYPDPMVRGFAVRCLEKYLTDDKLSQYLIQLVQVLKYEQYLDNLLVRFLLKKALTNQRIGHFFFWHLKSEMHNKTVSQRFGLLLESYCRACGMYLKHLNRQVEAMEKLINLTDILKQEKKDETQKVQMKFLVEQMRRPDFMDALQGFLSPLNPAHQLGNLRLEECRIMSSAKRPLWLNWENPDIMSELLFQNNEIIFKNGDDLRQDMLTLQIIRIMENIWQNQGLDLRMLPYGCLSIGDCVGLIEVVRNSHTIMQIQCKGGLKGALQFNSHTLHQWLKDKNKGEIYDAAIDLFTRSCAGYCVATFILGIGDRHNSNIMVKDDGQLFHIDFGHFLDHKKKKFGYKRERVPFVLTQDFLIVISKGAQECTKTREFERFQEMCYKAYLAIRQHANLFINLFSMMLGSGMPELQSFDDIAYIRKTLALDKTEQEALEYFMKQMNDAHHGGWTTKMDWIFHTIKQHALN

Target: PI3K-alpha (Homo sapiens (Human), UniProt P42336)
Assay: HTRF PI3K biochemical assay, alpha isoform
Conditions: ratio PI3K-alpha IC50 value/PI3K-delta IC50 value
From the text: HTRF PI3K Biochemical Assay to Measure Intrinsic Potency of Compound Inhibitors
The PI3-Kinase biochemical assays were developed to measure the intrinsic potency and compound dependent inhibition of the alpha, beta, delta, and gamma PI3K isoform enzymes. This assay was developed and further optimized from a kit produced by Upstate (Millipore catalog #33-047) and has been configured for HTS and SAR screening. Briefly, this procedure exploits the exquisite specificity and high affinity binding of enzyme reaction substrate phosphatidyl(3,4,5)triphosphate (PIP3) to the GRP1 pleckstrin homology (PH) domain to generate the signal. In the absence of PIP3, an HTRF (Homogeneous Time-Resolved Fluorescence energy transfer) complex is formed consisting of europium (Eu)-labeled anti-GST, GST tagged GRP1-PH domain, biotin-PIP3 and streptavidin conjugated APC. […]
The loss of the HTRF signal is due to the displacement of biotinylated-PIP3 from the PH domain by the PI3K-dependent conversion of PIP2 to PIP3. […] All data were calculated using the ratio of acceptor (APC) to donor (Europium) fluorescence in each well of the assay plate. […] An IC50 was then calculated fitting the % inhibition data to the equation: % inhibition=min+(Max−min)/1+([inhibitor]/IC50)^n) where min is the % inhibition […], max is the signal in DMSO control, and n is the Hill slope.

Q: Which “Relative Selectivity versus PI3Kalpha” value does the source give for `CCn1c(-c2cnc(C)nc2)nc2c(OC3CC4CCC3N4C(=O)C3CC3)ncnc21` (single isomer, unassigned) [Compound 2-139, cyclopropyl([(1R,2R,4S) or (1S,2S,4R)]-2-((9-ethyl-8-(2-methylpyrimidin-5-yl)-9H-purin-6-yl)oxy)-7-azabicyclo[2.2.1]heptan-7-yl)methanone] here?
A: The value was greater than 10.
